# Assay results: PMC8245773, “Brevibacillin 2V, a Novel Antimicrobial Lipopeptide With an Exceptionally Low Hemolytic Activity” (Frontiers in Microbiology, 2021)
# System: K. pneumoniae LMG20218
# Assay: Synergy assay, checkerboard method
# Conditions: synergistic ≤0.5
compound,measurement,setting,value
CO[C@H]1/C=C/O[C@@]2(C)Oc3c(C)c(O)c4c(O)c(c(/C=N/N5CCN(C)CC5)c(O)c4c3C2=O)NC(=O)/C(C)=C\C=C\[C@H](C)[C@H](O)[C@@H](C)[C@@H](O)[C@@H](C)[C@H](OC(C)=O)[C@@H]1C [Rifampicin],FICI,antibiotic + brevibacillin I,0.266
same,FICI,antibiotic + brevibacillin V,0.266
